According to US20090247570A1, “PHARMACEUTICALS” (Pfizer Inc, priority 2006, published 2009):

Test: Clinical trial: adverse events, discontinuations, deaths, malignancies
Format: in vivo, human
Conditions: all three treatment groups
Source text: Treatment experienced HIV-1 patients infected with a CXCR4 using viral population were selected according to the following protocol and the first group with optimised background therapy (OBT) alone was compared against groups on OBT plus maraviroc once a day and OBT plus maraviroc twice a day.
The eligible patients were randomised into three groups based on the drug regimens they received.
Group 1: dptimised background therapy (OBT) (3-6 antiretroviral drugs [not counting low dose retonavir] of which at least one is active and no more than one is an NNRTI) plus maraviroc 150 mg po taken once daily (QD).
Group 2: optimised background therapy (as above) plus maraviroc 150 mg po taken twice daily (BID).
Group 3: optimised background therapy (as above) plus placebo.

(N-{(1S)-3-[3-isopropyl-5-methyl-4H-1,2,4-triazole-4-yl]-exo-8-azabicyclo[3.2.1]oct-8-yl}-1-phenylpropyl)-4,4-difluorocyclohexanecarboxamide [maraviroc]
cases of lymphoma or adenocarcinoma: no cases
